Binding of CDR-mutated scFvs to a peptide of the spike HR2 region

Antigen: PDVDLGDISGINAS, a 14-residue peptide of the SARS-CoV-2 spike HR2 region.

The variants keep the heavy chain, the linker and the frameworks of Ab-95 (scFv order VH, the linker GGGGSGGGGSGGGGS, VL).
VH: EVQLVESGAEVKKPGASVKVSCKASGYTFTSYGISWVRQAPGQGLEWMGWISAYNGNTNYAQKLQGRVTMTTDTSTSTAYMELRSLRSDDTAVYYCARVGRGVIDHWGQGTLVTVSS
VL: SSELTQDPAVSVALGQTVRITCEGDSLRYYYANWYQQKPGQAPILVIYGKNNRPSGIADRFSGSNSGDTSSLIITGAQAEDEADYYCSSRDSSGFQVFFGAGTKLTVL

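The starting antibody came from a phage panning campaign against this peptide. Variants in AAYL52 differ from the parent at up to three CDR positions; double and triple changes were sampled at random. AlphaSeq pools MATa yeast showing the antibodies with MATalpha yeast showing the peptide. The frequency of each diploid, read from paired DNA barcodes, reflects how well the two displayed proteins bind. A regression on co-assayed BCL2-family reference pairs converts the normalised counts of each replicate to an apparent Kd. The assay was run in three technical replicates.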

Each variant is given by its three light chain CDRs, as the data file delimits them; those of the parent are EGDSLRYYYAN, GKNNRPS, SSRDSSGFQVF.
Kd is apparent (estimated from mating counts) and averaged on the log scale over replicates with a signal. Smaller is tighter.
A pair that was not seen in any replicate is written "not detected"; this usually means weak binding, but a binder can also be missed.
Empty control strains, which show no peptide, gave a signal in 28% of pairings with library AAYL52; the median was 8.2 µM and 95% of these signals were weaker than 800 nM. No background was subtracted.

Kd (apparent),detected,CDR-L1,CDR-L2,CDR-L3
8.1 µM,1 of 3,EGDGLRYYYAN,GKNNRPS,SSRDSSTFQVL
2.8 µM,3 of 3,EGDFLRYYYAN,GKNNRPS,NARDSSGFQVF
3.7 µM,2 of 3,EGDSLRYYYPN,GKNNRPS,SSRDSSGLQDF
340 nM,3 of 3,EGNSLRQYYAN,GKNNRPS,SFRDSSGFQVF
96 µM,1 of 3,EGDSLRYYYAN,GKNNHPS,CLRDSSGFQVF
3.6 µM,1 of 3,EGDSLRYYYAN,GKNNRPS,KSRDSKGFQVV
150 µM,3 of 3,EKDSLRYYYAS,GKNNRPS,SSRESSGFQVF
9.3 µM,3 of 3,EGDSLRYSYAY,GKNNRPI,SSRDSSGFQVF
210 nM,3 of 3,EGMSLRYYYAN,GHNNRPS,SSRDSSGFNVF
870 nM,3 of 3,EFDSHNYYYAN,GKNNRPS,SSRDSSGFQVF
920 nM,3 of 3,EGDSLRYYYAN,GKNNRPS,SWRDSLGFDVF
8.5 µM,1 of 3,EGDSLRYYYAS,GKNNRPS,TSRDSSGLQVF
5.8 µM,1 of 3,EGDSLRYYYAN,VTNNRPS,SSLDSSGFQVF
7.7 µM,2 of 3,EGDRLRYYYFN,GKNNRPS,SSRTSSGFQVF
360 nM,3 of 3,EGDSLRYYYAN,GKNNRPS,SSRWSSGVQVF
3.1 µM,2 of 3,EGDSLRYYYAN,GKPNMPS,SSKDSSGFQVF
not detected,0 of 3,EGDSLRYYYFN,GKNNRPY,SSRDSSGLQVF
not detected,0 of 3,EGDSLRYYYAN,GKCVRPS,CSRDSSGFQVF
130 µM,2 of 3,MGDSLRYYYAC,GKNNHPS,SSRDSSGFQVF
3.2 µM,2 of 3,EGDSLRYYYAP,GKNNRPS,SSRDSSGQQVF
740 nM,2 of 3,EGDSLAYYYAN,GKNNRPS,SSRDSLGGQVF
38 µM,1 of 3,EGDSLRYYYAN,GKNCRFS,SSRDSSGIQVF
11 µM,2 of 3,EGDHTRYYYAN,GKNNRRS,SSRDSSGFQVF
2.5 µM,3 of 3,EGDSLRYYYAN,GKNNIPS,SSRDSSGDQVF
3.9 µM,1 of 3,EGDSLRYYYAV,GKNNRHG,SSRDSSGFQVF
12 µM,3 of 3,EGDSLRYPYAN,GKNNRPS,SSRDSSVFQVF
960 nM,2 of 3,EEDKDRYYYAN,GKNNRPS,SSRDSSGFQVF
2.5 µM,3 of 3,EGDSLHYYYAN,GKNNRPS,SSKKSSGFQVF
66 µM,3 of 3,CGDSLRYYYGN,GKNNRPS,SWRDSSGFQVF
not detected,0 of 3,EGDSLRYFTAN,GKNNRPR,SSRDSSGFQVF
3.8 µM,1 of 3,EGDSLRYYYAN,GKLNDPS,SSRDSSPFQVF
23 µM,1 of 3,ELDSLRYYYAN,GKHNRPS,SSRDSKGFQVF
140 nM,3 of 3,EGDSLSYYYAN,GGKNRPS,SSRDSSGFQVF
7.7 µM,1 of 3,EGDSLLYYYAN,GFNNRPS,SSRDSSGFQLF
250 nM,3 of 3,EGDSLRYYYQN,DKNNCPS,SSRDSSGFQVF
2.7 µM,1 of 3,EGDSLRYYYAN,GKDNRPS,SSRDSPGFQVF
40 µM,2 of 3,EGDSLRYYYAN,GKNNAPS,SSRYSSGFQVF
18 µM,3 of 3,EWDSLRYYYAN,GKNNRPS,SSRTSSGQQVF
630 nM,3 of 3,EGVSQRYYYAN,GKNNRPS,SWRDSSGFQVF
2.6 µM,3 of 3,EGDSWRYYYAN,GKNNRPS,SSRDWSGFQVF
20 µM,2 of 3,EGDLLRYYYAN,GKNNRPS,SSRDSSGYQVG
15 µM,1 of 3,EGDCLRYYYAN,GKNNRPS,SSRDSSGFNHF
790 nM,3 of 3,EGDYLRYYDAN,GKNNRPS,SSRDSSQFQVF
84 µM,2 of 3,EGDVLRYYCAN,GKNNRPS,SSRDSSPFQVF
240 nM,3 of 3,EGDSTRPYYAN,GKNNRPQ,SSRDSSGFQVF
not detected,0 of 3,EGLSLRYYYAN,GKNNRPS,SSRDSSEFRVF
1.4 µM,3 of 3,EGKSLRYYYAN,GGNNRPS,SSRDSSGFQTF
not detected,0 of 3,EGDSKRYYYAN,GKNNRKS,SSRDSSGFQDF
370 nM,1 of 3,EGDSLRCYYAN,GKNNRPS,SSRDSAAFQVF
not detected,0 of 3,EGDSLRYYYAN,GKNNWPS,SARDSSGIQVF
16 µM,2 of 3,ELDSLRYYYGN,GKNNSPS,SSRDSSGFQVF
not detected,0 of 3,EGDSLRYYYAG,GKNNRPS,SSRDSSGLIVF
not detected,0 of 3,EEDSLRYYYEN,GKNNRPS,SSRDSSGFQVF
4.7 µM,2 of 3,EGDSLKYYYAE,GKNNRPS,MSRDSSGFQVF
5.3 µM,2 of 3,DGYSARYYYAN,GKNNRPS,SSRDSSGFQVF
2.8 µM,3 of 3,EGNSLRYYYAN,GKNNRPS,SSRDSSGMTVF
9.5 µM,2 of 3,EGDSLQYYYHN,GKNNRPS,SSRDSSGLQVF
39 µM,1 of 3,EGDSSVYYYAN,GKNNRPS,SSGDSSGFQVF
420 nM,2 of 3,EGDWLRYYYAN,GKPKRPS,SSRDSSGFQVF
3.2 µM,2 of 3,EGDSLRYYYAN,GKNNLPS,SSDDSSGFAVF
2.5 µM,3 of 3,EGDSVRDYYAN,GKNNRPC,SSRDSSGFQVF
4.0 µM,2 of 3,EGDSLRYYYAN,TKNNRPS,SDMDSSGFQVF
6.5 µM,1 of 3,EGDSLRAYYAN,GKNNRFS,SRRDSSGFQVF
200 nM,3 of 3,EGDSLRYYYAN,GGNNRPS,SSRGSSGFNVF
8.7 µM,2 of 3,EGDSLRYYYAN,GKHNKPS,SSRDSSAFQVF
120 µM,2 of 3,EGDSLRYYYAN,GKRNRPF,SSRDNSGFQVF
13 µM,2 of 3,EGDSLRYYYAN,GKYMRPS,SSRDSSAFQVF
690 nM,3 of 3,EYDSLRYYYAN,GKNNRPS,SSRDSSGYQVT
not detected,0 of 3,EGDLLRYYYAN,GKRNRPS,VSRDSSGFQVF
4.2 µM,1 of 3,EGDSLRYYYAN,GKNNRPM,ISRDSSGFQIF
230 nM,3 of 3,EGDSLRKYYAN,GKGNRQS,SSRDSSGFQVF
7.3 µM,1 of 3,EGDSLRYYYAN,GKMNRLS,SSRDSPGFQVF
57 µM,2 of 3,EGDSLRYYYAH,GKTNRPS,SSRDSYGFQVF
420 nM,3 of 3,EGDSLRQYYAN,GKINRQS,SSRDSSGFQVF
33 µM,2 of 3,EGDAERYYYAN,GKNNRPE,SSRDSSGFQVF
450 nM,1 of 3,EGDHLRYYYAN,GKNNHPS,SSRYSSGFQVF
2.6 µM,2 of 3,EGDSLRYYYAN,GKNNRPS,SSRDSEGFPVS
970 nM,3 of 3,EGDSLSYYYAN,GKNTRPS,SSRDNSGFQVF
470 nM,3 of 3,TGDSLRYYYAN,GKNNRPS,SSRDSYGKQVF
not detected,0 of 3,EGDSLRYYYAN,GKPNRPS,SSRDHSGFQHF

The last 5 entries again:

{"CDR-L1": "EGDHLRYYYAN", "CDR-L2": "GKNNHPS", "CDR-L3": "SSRYSSGFQVF", "Kd (apparent)": "450 nM", "detected": "1 of 3"}
{"CDR-L1": "EGDSLRYYYAN", "CDR-L2": "GKNNRPS", "CDR-L3": "SSRDSEGFPVS", "Kd (apparent)": "2.6 µM", "detected": "2 of 3"}
{"CDR-L1": "EGDSLSYYYAN", "CDR-L2": "GKNTRPS", "CDR-L3": "SSRDNSGFQVF", "Kd (apparent)": "970 nM", "detected": "3 of 3"}
{"CDR-L1": "TGDSLRYYYAN", "CDR-L2": "GKNNRPS", "CDR-L3": "SSRDSYGKQVF", "Kd (apparent)": "470 nM", "detected": "3 of 3"}
{"CDR-L1": "EGDSLRYYYAN", "CDR-L2": "GKPNRPS", "CDR-L3": "SSRDHSGFQHF", "Kd (apparent)": "not detected", "detected": "0 of 3"}

In this assay the parent's reference entry averaged 200 nM; its copy inside this library read 180 nM.

Source: Engelhart et al. 2022 (doi:10.1038/s41597-022-01779-4), MIT Lincoln Laboratory and A-Alpha Bio; data file from the FLAb repository.